Values quoted from earlier work in patent publication US5635458A, “Water-based drilling fluids for reduction of water adsorption and hydration of argillaceous rocks” (M-I Drilling Fluids, L.L.C., priority 1995, dated 1997).

Details: in vivo; cited from earlier work

In the case of `CC(O)COC(C)COC(C)CO` (stereo not shown) [Tripropylene Glycol], the “single-dose oral LD50” value is listed as ~ 3 gm/KG.
